Measured values published in US6825209B2 (dated 2004).

By UniProt entry, the sequences of proteins in these tests, tags left out.
UniProt P20272, whole entry: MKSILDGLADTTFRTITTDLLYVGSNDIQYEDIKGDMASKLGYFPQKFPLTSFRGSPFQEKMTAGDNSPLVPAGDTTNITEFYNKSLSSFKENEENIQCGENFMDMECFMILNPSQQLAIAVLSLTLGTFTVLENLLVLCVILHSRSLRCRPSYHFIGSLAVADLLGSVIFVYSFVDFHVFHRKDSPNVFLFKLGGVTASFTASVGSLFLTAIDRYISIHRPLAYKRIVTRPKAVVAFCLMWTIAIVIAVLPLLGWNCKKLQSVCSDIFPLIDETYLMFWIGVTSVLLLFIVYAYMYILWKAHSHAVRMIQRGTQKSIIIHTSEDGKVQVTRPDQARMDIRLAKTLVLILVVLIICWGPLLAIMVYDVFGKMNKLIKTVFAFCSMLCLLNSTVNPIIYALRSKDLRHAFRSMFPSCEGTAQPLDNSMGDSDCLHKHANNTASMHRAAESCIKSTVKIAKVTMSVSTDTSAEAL
UniProt P47746, whole entry: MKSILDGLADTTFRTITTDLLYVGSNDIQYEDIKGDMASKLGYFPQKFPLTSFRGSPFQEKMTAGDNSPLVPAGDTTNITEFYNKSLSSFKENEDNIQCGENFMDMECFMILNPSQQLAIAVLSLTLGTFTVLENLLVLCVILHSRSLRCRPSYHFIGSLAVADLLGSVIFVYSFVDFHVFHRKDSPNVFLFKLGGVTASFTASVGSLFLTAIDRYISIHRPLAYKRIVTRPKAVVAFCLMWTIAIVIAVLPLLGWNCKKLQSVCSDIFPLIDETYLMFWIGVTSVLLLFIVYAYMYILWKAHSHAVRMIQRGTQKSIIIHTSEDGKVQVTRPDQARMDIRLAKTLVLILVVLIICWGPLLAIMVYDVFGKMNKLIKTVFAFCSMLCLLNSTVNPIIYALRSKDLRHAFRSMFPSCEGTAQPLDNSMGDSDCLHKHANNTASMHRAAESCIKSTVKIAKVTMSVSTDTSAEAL
UniProt P21554, whole entry: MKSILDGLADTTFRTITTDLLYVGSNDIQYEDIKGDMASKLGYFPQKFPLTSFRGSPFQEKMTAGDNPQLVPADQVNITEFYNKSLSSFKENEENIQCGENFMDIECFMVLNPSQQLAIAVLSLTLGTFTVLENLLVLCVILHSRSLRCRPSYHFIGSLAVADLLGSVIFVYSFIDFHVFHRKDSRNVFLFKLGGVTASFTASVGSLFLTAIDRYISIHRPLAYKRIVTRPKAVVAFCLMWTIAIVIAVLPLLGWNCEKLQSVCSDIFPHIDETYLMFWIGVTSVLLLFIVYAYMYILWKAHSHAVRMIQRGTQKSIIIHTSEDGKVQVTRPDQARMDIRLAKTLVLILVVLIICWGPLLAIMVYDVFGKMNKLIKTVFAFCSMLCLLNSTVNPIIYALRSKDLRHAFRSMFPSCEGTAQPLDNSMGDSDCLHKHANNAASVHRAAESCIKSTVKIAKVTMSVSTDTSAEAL

Assays:
CB1 receptor = CB1 receptor (Rattus norvegicus, UniProt P20272); assay: Radioligand displacement in whole rat brain (CB1) membrane preparations
cannabinoid receptors = cannabinoid receptors (Mus musculus, UniProt P47746); assay: Mouse vas deferens tissue assay (WIN55212-2 as agonist); settings: isolated mouse vas deferens; in the absence of WIN55212-2
human CB1 receptor = human CB1 receptor (Homo sapiens, UniProt P21554); assay: Radioligand displacement in human CB1 receptor-transfected cells (HEK-293)
[1] = whole rat brain, 3H-CP55940, Table 4, parallel synthesis analogs, n = 1
[2] = whole rat brain membranes, radioligand 3H-CP55940, Tables 1 and 2

Cc1c(C(=O)NC(C)Cc2ccc(Cl)cc2)nn(-c2ccc(Cl)cc2Cl)c1-c1ccc(Cl)cc1 (stereo not shown) [AKS-10262-10] was tested, and the “Max. Disp. %, 3H-CP55940” value (CB1 receptor; [1]) was 88.8%.

With Cc1c(C(=O)NN2CCCCC2)nn(-c2ccc(Cl)cc2Cl)c1-c1ccc(Cl)cc1 [SR141716A, reference compound] the “% Inverse Effect” value (cannabinoid receptors) was 65.2%, the “Max. Disp. %, 3H-CP55940” value (CB1 receptor; [2]) was 86.6% and the “Max. Disp. %, 3H-SR141716A” value (CB1 receptor; whole rat brain membranes, radioligand 3H-SR141716A, Tables 1 and 2) was 96.5%. For the same compound, the “Max. Disp. %, 3H-CP55940” value (CB1 receptor; [1]) was 86.6% and the “Max. Disp. %, 3H-SR141716A” value (CB1 receptor; whole rat brain, 3H-SR141716A, Table 4, parallel synthesis analogs, n = 1) was 96.5%.

Cc1c(C(=O)NCCCCO)nn(-c2ccc(Cl)cc2Cl)c1-c1ccc(Cl)cc1 [MF9725-95-31] showed a Ki (CB1 receptor; read-out: Ki, displacement of 3H-SR141716A, whole rat brain membranes, radioligand 3H-SR141716A, Tables 1 and 2) of 143 nM.

With CCCCCCC(C)(C)NC(=O)c1nn(-c2ccc(Cl)cc2Cl)c(-c2ccc(Cl)cc2)c1C the “Max. Disp. %, 3H-CP55940” value (human CB1 receptor) was 91.1%.

Cc1c(C(=O)NC(C)CO)nn(-c2ccc(Cl)cc2Cl)c1-c1ccc(Cl)cc1 (single isomer, unassigned) [MF9725-105-38] was tested, and the “Max. Disp. %, 3H-CP55940” value (CB1 receptor; [2]) was 88.1%.

For CCCNC(=O)c1nn(-c2ccc(Cl)cc2Cl)c(-c2ccc(Cl)cc2)c1C [MF9725-55C], the Ki (human CB1 receptor; Ki, displacement of 3H-WIN55212-2, human CB1 transfected cells, radioligand 3H-WIN55212-2, Table 3) was 25.1 nM.
